Experimental data reported in patent US10513520B2, “Sulfamide and sulfamate inhibitors of hHint1” (Regents of the University of Minnesota, priority 2016, dated 2019).

Assay: Solubility (aqueous buffers, water, DMSO)
Conditions: for soluble in (solvent): additional compounds 1a-1f

| water solubility (additional compounds 2b, 2c) | SMILES | soluble in (solvent) |
| --- | --- | --- |
| – | Nc1nc2c(ncn2[C@@H]2O[C@H](COC(=O)NCc3ccccc3)[C@@H](O)[C@H]2O)c(=O)[nH]1 | insoluble |
| – | Nc1nc2c(ncn2[C@@H]2O[C@H](COC(=O)NCCc3c[nH]c4ccccc34)[C@@H](O)[C@H]2O)c(=O)[nH]1 [Compound 3, guanosine-5′-tryptamine carbamate] | DMSO |
| – | Nc1nc2c(ncn2[C@@H]2O[C@H](COC(=O)NCCc3cnc[nH]3)[C@@H](O)[C@H]2O)c(=O)[nH]1 | DMSO |
| highly water soluble | Nc1nc2c([C@@H]3O[C@H](COS(=O)(=O)NC(=O)CCc4c[nH]c5ccccc45)[C@@H](O)[C@H]3O)scc2c(=O)[nH]1 | – |
| – | CCN(CC)C(=O)OC[C@H]1O[C@@H](n2cnc3c(=O)[nH]c(N)nc32)[C@H](O)[C@@H]1O | DMSO |
